Measurements taken from article PMC7956344, “Structure Elucidation and Cholinesterase Inhibition Activity of Two New Minor Amaryllidaceae Alkaloids” (Molecules, 2021).

Amino acid sequences for entries named in this document (tags omitted). Residues count along the entry.
UniProt P06276, 29-602: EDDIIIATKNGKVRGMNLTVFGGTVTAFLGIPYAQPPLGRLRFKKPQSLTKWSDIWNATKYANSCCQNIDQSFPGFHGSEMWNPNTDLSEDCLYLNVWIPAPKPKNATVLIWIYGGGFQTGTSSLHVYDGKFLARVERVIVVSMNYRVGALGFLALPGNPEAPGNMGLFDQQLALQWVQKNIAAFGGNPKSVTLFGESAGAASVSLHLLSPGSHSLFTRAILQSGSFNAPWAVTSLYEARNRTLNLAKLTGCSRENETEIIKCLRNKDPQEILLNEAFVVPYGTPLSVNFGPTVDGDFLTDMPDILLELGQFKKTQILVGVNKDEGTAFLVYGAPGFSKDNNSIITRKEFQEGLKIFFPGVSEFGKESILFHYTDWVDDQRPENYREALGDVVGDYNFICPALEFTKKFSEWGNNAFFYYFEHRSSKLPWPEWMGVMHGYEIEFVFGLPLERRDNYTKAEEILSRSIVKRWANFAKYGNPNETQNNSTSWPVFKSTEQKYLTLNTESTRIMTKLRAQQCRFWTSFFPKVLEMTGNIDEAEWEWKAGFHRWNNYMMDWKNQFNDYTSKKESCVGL

Target: human butyrylcholinesterase (hBuChE) (Homo sapiens, UniProt P06276)
Experiment: hBuChE inhibition assay (modified Ellman method, BuTChI substrate)
Type: biochemical
Settings: tested at 100 µM compound concentration

CNC(=O)Oc1ccc2c(c1)[C@]1(C)CCN(C)[C@@H]1N2C [eserine]
% Inhibition hBuChE ± SEM: 99.9 ± 0.5%
